{"source": "patent US20210347827A1", "molecular_target": "immunoglobulin G (IgG) obtained from human serum (human)", "assay": "IgG (2 mg/mL) bound to beads carrying immobilized Protein A, washed, read by SDS-PAGE", "data": [{"substance": "Protein A polymer (Protein A linear multimer polymer made by the Ubstac reaction, immobilized on latex beads) (from UniProt P0CG48 1-76)", "values": [{"measurement": "increase of binding activity against the protein A monomer beads", "value": "> 15", "unit": "%"}]}]}
